Measured values as given in patent US7163959B2, “Prostagladin derivatives for the treatment of glaucoma or ocular hypertension” (priority 1990, dated 2007).

Key:
[1] = test system: rabbit eye; test: Conjunctival hyperemia after topical application in rabbits; format: in vivo; details: for Conjunctival hyperemia, in words: topical (Table IV); for Degree of hyperemia: topical, conjunctival hyperemia scale 0 to 4, dose 0.5 μg, PGF2α-IE 0.1 μg
Protocol: Conjunctival hyperemia after topical application of the test substances was evaluated in rabbits. […] Conjunctival hyperemia was evaluated on a scale from 0 to 4, 0 indicating complete absence of any hyperemia, and 4 indicating marked hyperemia with conjunctival chemosis.

[2] = test system: cat eye; test: Ocular discomfort (irritation) after topical application in cats; details: topical (Table III)

Substance | Conjunctival hyperemia, in words [1] | Degree of hyperemia [1] | Ocular irritation (discomfort), in words [2]
18-phenyl-19,20-dinor-PGF2α-isopropylester [Substance 10] | very little conjunctival hyperemia | 0.3 ± 0.2 | no or very little irritating effect
19-phenyl-20-nor-PGF2α-isopropylester [Substance 20] | very little conjunctival hyperemia | 0.2 ± 0.2 | no or very little irritating effect
